A selection: hits, their analogues and other compounds. The true share with any hit is near 2.2%.
Nrf2 ARE act – activators of Nrf2 (ARE) signaling. AREc32 ARE-luciferase reporter (MCF7-derived line), luminescence, 24 h. Potency, µM (series often up to 46.1 µM), without a hit: top-dose activation, usual class: activators. 410,000 tested, 0.31% active; also: potency is read from the fitted curve at half-maximal effect; % of control where 0% means no effect; nearly all actives have a fitted effect of over 65% in size
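Luminescent ARE reporter assay in AREc32_Fluc cells: overnight plating at 37 deg C, 24 hr compound incubation, Steady-Glo added, 30 min RT before reading.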
miR-21 reporter – raises the signal of a miR-21 reporter; HeLa miR-21 FLuc reporter, luciferase, 48 h; Potency, µM (top dose mostly 38.3 µM), for inactives: at the highest dose reporter change, positive = more light; AID 2288; 340,000 tested, under 10 active; active = well fitted rising curve with a large enough effect; inconclusive = small, poorly fitted or top-dose-only effect; inactive = no such curve, though single readings can be large or run the other way;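 note: % of control where 0% means no effect; miR-21 action dims this reporter so a rising signal means less miR-21 action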
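Luminescence from a firefly luciferase reporter carrying a miR-21 binding site downstream, stably expressed under a CMV promoter in HeLa cells that make miR-21 endogenously, reports miRNA modulation after 48 h compound exposure up to approximately 40uM final.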
B2AR arrestin – recruits beta-arrestin to the human beta2-adrenergic receptor; P07550; beta-arrestin recruitment to beta2AR, cell-based reporter; Potency, µM (series often up to 46.1 µM), without a hit: at the top dose activation, usual class: activators; 330,000 tested, 0.02% active; AID 492947;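 also: potency is read from the fitted curve at half-maximal effect; 0% = DMSO controls and full agonism = EC100 isoproterenol or metaproterenol; nearly all actives have a fitted effect of over 65% in size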
Nrf2 block – inhibitors of Nrf2 signaling | A549 ARE-Fluc reporter, luciferase luminescence, 18-24 h | Potency, µM (highest dose often 46 µM), inactives show at the highest dose activity change, negative = inhibition, most hits filed as inhibitors | 360,000 tested, 2.1% active | AID 504444; also: potency is read from the fitted curve at half-maximal effect; % is scaled to controls: 0 for no effect and ±100 for the full control effect; nearly all actives have a fitted effect of over 60% in size
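Nrf2 activity is the BugLite luminescence, read 15 min after reagent at room temperature, following CellTiter-Fluor cytotoxicity readout (30 min, 37C). Compound titrations were applied for 18-24 h to 5000 A549 ARE_Fluc cells/well in 5% FBS OPTI-MEM.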
A549 tox – kills or reduces viability of A549 cells in Nrf2 counter-screen; Potency, µM (highest dose often 46 µM), for inactives: at the highest dose activity change, negative = cytotoxicity, most hits filed as inhibitors; 390,000 tested, 0.16% active; A549 ARE-Fluc cells, CellTiter-Fluor viability, 18-24 h; also: potency is read from the fitted curve at half-maximal effect; % is scaled to controls: 0 for no effect and ±100 for the full control effect
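A549 ARE-Fluc cells in 5% FBS OPTI-MEM, 5000 cells/well, rested 2 h then exposed to compounds in concentration-response for 18-24 h at 37 °C. Viability by CellTiter-Fluor fluorescence (Ex 405/Em 525) after 30 min; luciferase luminescence (BugLite, 15 min, RT) read afterwards.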
* marks the source's active call; other numbers are inactive results; ? = inconclusive; . = no result; [ ] = remark or other dose. Unless noted, calls follow the shape of the dose curve; as a rule, active = well fitted curve in the direction sought with a large enough effect; inconclusive = small, poorly fitted or top-dose-only effect, or another doubt; inactive = no such curve, though single readings can be large; an effect the other way counts as inactive or inconclusive.

#1 S=C(NCC1CCCO1)Nc1ccc(Nc2ccccc2)cc1 (centres undefined)
#2 COc1ccc(SCC(CC(C)C)N2CCN(CCc3ccccc3)CCC2=O)cc1 (centres undefined)
#3 Cc1ccc(NS(=O)(=O)c2cc3c(cc2-c2cn[nH]c2)NC(=O)CO3)cc1C
#4 CCCN1C=CC(=C2C(=O)c3ccccc3C2=O)C=C1
#5 CCCCCCN1C=CC(=C2C(=O)c3ccccc3C2=O)C=C1
#6 CCN1C=CC(=C2C(=O)c3ccccc3C2=O)C=C1
Screen / compound no.	1	2	3	4	5	6
Nrf2 ARE act	3%	.	.	-3%	-1%	-3%
miR-21 reporter	11%	.	.	?	-28%	?
B2AR arrestin	-1%	.	.	0%	0%	0%
Nrf2 block	15µM*	-25%	-20%	3.3µM*	?	1.6µM*
A549 tox	-22%	-14%	-1%	-25%	-1%	-2%

#7 COc1ccc(Cl)cc1NC(=O)c1cc(S(=O)(=O)NC2CCCCCC2)ccc1F
#8 COc1cc(S(=O)(=O)NCCc2c(C)[nH]c3ccc(C)cc23)ccc1Br
#9 O=C(O)c1cccc(CSc2nnc(COc3ccccc3)o2)c1
#10 O=C(CCSc1nnc(-c2ccncc2)o1)Nc1ccc(Cl)cc1
#11 O=C(O)c1cccc(CSc2nnc(-c3ccc(Cl)cc3)o2)c1
#12 O=C(CCSc1nnc(-c2ccncc2)o1)Nc1cccc(Cl)c1
Screen / compound no.	7	8	9	10	11	12
Nrf2 ARE act	9%	7%	-2%	2%	-2%	3%
miR-21 reporter	11%	-2%	16%	-1%	17%	-1%
B2AR arrestin	.	.	0%	-1%	-1%	0%
Nrf2 block	.	.	.	-21%	9.2µM*	21µM*
A549 tox	13%	-7%	3%	1%	-1%	-4%

#13 O=C(c1cccc2ccccc12)N1CCN(S(=O)(=O)c2ccccc2)CC1
#14 O=C1/C(=C/c2cccs2)SC(=S)N1c1ccccc1
#15 CCOC(=O)c1ccc(NC(=O)CC2Nc3ccccc3NC2=O)cc1 (centres undefined)
#16 O=C(O)c1ccc2c(c1)C(=O)N([C@H](Cc1ccc(-c3ccccc3)cc1)C(=O)O)C2=O
#17 C=CC(=O)Nc1cccc(Nc2nc(N[C@H]3CC[C@H](N(C)C)CC3)nc3c2ncn3C(C)C)c1
#18 CC(C)n1cnc2c(Nc3cccc(Cl)c3)nc(NCCCO)nc21
Screen / compound no.	13	14	15	16	17	18
Nrf2 ARE act	.	2%	0%	.	-3%	-5%
miR-21 reporter	.	-4%	1%	.	.	-3%
B2AR arrestin	.	0%	.	0%	.	0%
Nrf2 block	-2%	10µM*	10%	17%	0.58µM*	?
A549 tox	6%	?	-4%	-2%	2.6µM*	?

#19 O=c1c2ccccc2ncn1CCCSc1ccccc1
#20 COC(=O)C1Cc2c([nH]c3ccccc23)C2CCC(=O)N12 (centres undefined)
#21 COC(=O)[C@@H]1Cc2c([nH]c3ccccc23)C(C)(C)N1C(=O)CCl
#22 CC1(C)Cc2c(C#N)c(SCC(=O)c3ccccc3)nc(N3CCOCC3)c2CS1
#23 CN1Cc2c(N3CCOCC3)nc(SCc3ccccc3)c(C#N)c2CC1(C)C
#24 O=C(O)CCC(=O)Nc1ccc(-c2nc3ccc(C(=O)c4ccccc4)cc3[nH]2)cc1
Screen / compound no.	19	20	21	22	23	24
Nrf2 ARE act	4%	2%	10µM*	0%	0%	4%
miR-21 reporter	-29%	.	?	0%	-9%	-25%
B2AR arrestin	0%	.	0%	0%	0%	0%
Nrf2 block	23µM*	.	-14%	16µM*	.	6%
A549 tox	?	.	-7%	-18%	12%	-7%

#25 O=C(c1ccccc1)c1ccc2nc(-c3ccc(NC(=O)c4ccccc4F)cc3)[nH]c2c1
#26 Cn1cc([N+](=O)[O-])c(C(=O)Nc2ccc(-c3nc4ccccc4[nH]3)cc2)n1
#27 Cn1cc([N+](=O)[O-])c(C(=O)Nc2ccc3nc(-c4ccccc4)[nH]c3c2)n1
#28 COc1ccc(C)cc1NC(=O)CSc1ncc2c(n1)-c1ccc(Cl)cc1N(Cc1ccccc1)S2(=O)=O
#29 C[n+]1c2n(c3ccccc31)N=C(c1ccc(-c3ccccc3)cc1)CS2
#30 Cc1ccc(Cn2c(CNS(=O)(=O)c3ccc(Cl)s3)nc3cccnc32)cc1
Screen / compound no.	25	26	27	28	29	30
Nrf2 ARE act	0%	?	25µM*	4%	-1%	2%
miR-21 reporter	-15%	-50%	-72%	10%	?	2%
B2AR arrestin	0%	1%	0%	.	0%	.
Nrf2 block	10µM*	28%	?	26%	10µM*	.
A549 tox	?	0%	-1%	0%	?	6%

Taken from above.
Under miR-21 reporter, #28 shows 10%
Under Nrf2 block, #26 shows 28%

Carrying on:
#31 Cc1nc(SCc2ccccc2)c2ccsc2n1
#32 c1ccc(CSc2ncnc3sccc23)cc1
#33 c1ccc2sc(Sc3ncnc4sccc34)nc2c1
#34 Cc1cc2c(s1)c1cnn(Cc3cc(F)cc(F)c3)c(=O)c1n2C
#35 O=S(=O)(NC[C@@H]1CCC[C@H](CNS(=O)(=O)c2c(F)cccc2F)C1)c1ccc2c(c1)OCCO2
#36 CS(=O)(=O)c1ccc(C(=O)OCC(=O)NCC2CCCO2)cc1[N+](=O)[O-] (centres undefined)
Screen / compound no.	31	32	33	34	35	36
Nrf2 ARE act	?	11µM*	8.9µM*	.	.	.
miR-21 reporter	-2%	-16%	1%	.	.	.
B2AR arrestin	0%	0%	-2%	.	0%	.
Nrf2 block	-24%	9%	?	15%	?	-3%
A549 tox	-1%	0%	0%	-2%	-12%	-2%

#37 Cc1cc(NC(=O)Cc2ccccc2)cc(-c2nc3ccccc3o2)c1O
#38 COc1ccc(S(=O)(=O)NCCCCC(=O)O)cc1C(=O)O
#39 CC1(C)CC(=O)C2=C(C1)NC(Nc1nc3ccccc3o1)=NC2c1ccccc1 (centres undefined)
#40 CC(C(=O)NCCS(=O)(=O)c1ccc(Cl)cc1)S(=O)(=O)c1ccc(Cl)cc1 (centres undefined)
#41 CC(C(=O)NCCS(=O)(=O)c1ccc(Cl)cc1)S(=O)(=O)c1ccccc1 (centres undefined)
#42 CCOc1cc2[nH]c(=O)n(CCCCC(=O)N3CCN(c4ccccc4OC)CC3)c(=O)c2cc1OCC
Screen / compound no.	37	38	39	40	41	42
Nrf2 ARE act	0%	0%	.	0%	2%	0%
miR-21 reporter	-3%	2%	.	0%	4%	-2%
B2AR arrestin	.	0%	.	0%	0%	.
Nrf2 block	3%	16µM*	4%	9.2µM*	-13%	.
A549 tox	2%	-33%	-3%	-1%	5%	-13%

Arranged by length of the SMILES (largest number first): some entries from above.
#42 CCOc1cc2[nH]c(=O)n(CCCCC(=O)N3CCN(c4ccccc4OC)CC3)c(=O)c2cc1OCC
#39 CC1(C)CC(=O)C2=C(C1)NC(Nc1nc3ccccc3o1)=NC2c1ccccc1 (centres undefined)
#37 Cc1cc(NC(=O)Cc2ccccc2)cc(-c2nc3ccccc3o2)c1O
Screen / compound no.	42	39	37
Nrf2 ARE act	0%	.	0%
miR-21 reporter	-2%	.	-3%
B2AR arrestin	.	.	.
Nrf2 block	.	4%	3%
A549 tox	-13%	-3%	2%

Going on with the list.
#43 Cc1ccc(S(=O)(=O)N(CC(=O)Nc2cccnc2)c2cc(Cl)ccc2C)cc1
#44 Cc1ccc(S(=O)(=O)/N=C(\N)Nc2nc(C)c3ccc(C)cc3n2)cc1
#45 O=C(/C=C/c1ccc(-c2ccccc2[N+](=O)[O-])o1)c1ccc(Br)cc1
#46 O=C(/C=C/c1ccc(-c2ccccc2[N+](=O)[O-])o1)c1ccc(F)cc1
#47 O=C1CCc2cc(S(=O)(=O)NC(C(=O)Nc3ccc(F)cc3)c3ccccc3)ccc2N1 (centres undefined)
#48 COc1ccc(-c2nnc(SC)o2)c(OC)c1
#49 COc1ccc(OC)c(-c2nnc(-c3ccc(C)o3)o2)c1
#50 COc1cc(/C=N/N=C2\CC3CCC2(C)C3(C)C)ccc1O (centres undefined)
Screen / compound no.	43	44	45	46	47	48	49	50
Nrf2 ARE act	4%	2%	2.5µM*	?	0%	8%	11µM*	-1%
miR-21 reporter	-4%	-3%	-6%	-21%	-1%	-42%	-41%	-2%
B2AR arrestin	.	-1%	0%	-1%	.	0%	0%	.
Nrf2 block	?	8.2µM*	-7%	12%	15%	?	?	-13%
A549 tox	?	-7%[1.84 µM]	0%	-8%	-3%	0%	1%	-16%
